Data published in ChEMBL document CHEMBL1140446, “Designed multiple ligands. An emerging drug discovery paradigm” (J Med Chem, 2005).
Only a part of the results on these compounds is given; other tests are left out.

Amino acid sequences for entries named in this document (tags omitted).
UniProt P25103, whole entry: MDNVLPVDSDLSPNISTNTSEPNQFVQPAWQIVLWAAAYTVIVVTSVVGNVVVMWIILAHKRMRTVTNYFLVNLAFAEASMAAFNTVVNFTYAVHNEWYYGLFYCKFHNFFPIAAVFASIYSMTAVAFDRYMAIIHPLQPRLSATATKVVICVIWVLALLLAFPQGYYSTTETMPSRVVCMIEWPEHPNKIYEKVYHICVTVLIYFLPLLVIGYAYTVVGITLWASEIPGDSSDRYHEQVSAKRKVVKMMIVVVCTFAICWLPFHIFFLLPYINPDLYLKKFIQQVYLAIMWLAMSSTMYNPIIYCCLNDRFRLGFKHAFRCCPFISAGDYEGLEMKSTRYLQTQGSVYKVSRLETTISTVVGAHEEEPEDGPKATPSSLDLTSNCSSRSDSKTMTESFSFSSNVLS
UniProt P31645, whole entry: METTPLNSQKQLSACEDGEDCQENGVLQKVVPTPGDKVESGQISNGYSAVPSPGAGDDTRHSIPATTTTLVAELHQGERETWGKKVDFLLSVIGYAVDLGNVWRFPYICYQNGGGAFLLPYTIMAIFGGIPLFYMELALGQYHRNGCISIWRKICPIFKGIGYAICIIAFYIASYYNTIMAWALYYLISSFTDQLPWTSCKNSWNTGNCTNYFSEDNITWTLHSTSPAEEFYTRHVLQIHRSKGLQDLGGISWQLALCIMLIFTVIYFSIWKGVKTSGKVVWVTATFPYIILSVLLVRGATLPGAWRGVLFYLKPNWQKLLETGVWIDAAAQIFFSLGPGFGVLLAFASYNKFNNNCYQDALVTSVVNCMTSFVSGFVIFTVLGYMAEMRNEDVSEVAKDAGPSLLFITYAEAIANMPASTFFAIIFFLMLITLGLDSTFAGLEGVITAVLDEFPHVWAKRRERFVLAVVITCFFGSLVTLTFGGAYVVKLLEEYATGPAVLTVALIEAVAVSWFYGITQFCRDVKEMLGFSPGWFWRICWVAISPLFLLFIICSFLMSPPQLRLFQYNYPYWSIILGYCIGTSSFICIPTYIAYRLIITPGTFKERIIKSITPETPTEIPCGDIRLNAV

Tests used:
Substance-P receptor = Substance-P receptor (Homo sapiens, UniProt P25103); test: Negative logarithm causing 50% receptor occupancy against tachykinin receptor 1
[1] = molecular target: Sodium-dependent serotonin transporter (Homo sapiens, UniProt P31645); test: Negative logarithm causing 50% receptor occupancy against serotonin transporter

For `Cc1cc(C)cc(OCC(=O)N(c2ccc(Cl)c(Cl)c2)C2CCNCC2)c1`, which Log Ki (Substance-P receptor) is on record?
Its Log Ki is -7.6.

What about the Log Ki [1] of the same compound?
Its Log Ki is -7.5.
